## AlphaSeq binding of Ab-14 heavy chain variants to a spike HR2 peptide

Source: Engelhart et al. 2022 (doi:10.1038/s41597-022-01779-4), MIT Lincoln Laboratory and A-Alpha Bio; data file from the FLAb repository.

The target is the same throughout: PDVDLGDISGINAS, from the HR2 region of SARS-CoV-2 spike.

Parent scFv Ab-14: VH joined to VL by a 15-residue (Gly4Ser)3 linker. Changes lie in the heavy chain CDRs alone.
VH: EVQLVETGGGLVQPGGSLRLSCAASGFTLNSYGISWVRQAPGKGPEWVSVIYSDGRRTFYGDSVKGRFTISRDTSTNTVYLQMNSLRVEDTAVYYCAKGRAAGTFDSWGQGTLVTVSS
VL: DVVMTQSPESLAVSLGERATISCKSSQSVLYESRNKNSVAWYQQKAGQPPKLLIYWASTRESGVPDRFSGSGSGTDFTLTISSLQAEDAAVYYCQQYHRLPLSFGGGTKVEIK

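The starting antibody came from a phage panning campaign against this peptide. Variants in AAYL49 differ from the parent at up to three CDR positions; double and triple changes were sampled at random. Affinity was read by AlphaSeq, a pooled yeast mating assay with surface-displayed partners. Binding brings cells together so that they mate, and sequencing counts the barcode pairs among the diploids. A regression on co-assayed BCL2-family reference pairs converts the normalised counts of each replicate to an apparent Kd. Mating was done three times.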

Each variant is given by its three heavy chain CDRs, as the data file delimits them; those of the parent are GFTLNSYGIS, VIYSDGRRTFYGDSVK, GRAAGTFDS. Values are apparent Kd, the geometric mean of the replicates that gave a signal; lower means stronger binding. A pair that was not seen in any replicate is written "not detected"; this usually means weak binding, but a binder can also be missed. Three control strains display no target. For library AAYL49, 15% of the pairings with them gave a signal, with a median of 11 µM and one signal in twenty below 680 nM, so weak values seen in few replicates may be background. Parent in this assay: reference entry 4.4 nM, copy in this library 13 µM (one replicate of three).

CDR-H1	CDR-H2	CDR-H3	Kd	detected
GFTLNSYGIS	VIYSDGGRTFYGDSVK	GRFMGTFDS	1.3 µM	3/3
GFTLNSYGIS	VIYDDGRRTFYGDSHK	GRAAGTFDS	not detected	0/3
GFTLNSYGIS	VIYSDGRLTFYGDSVQ	GRAAGTFPS	13 µM	2/3
GFTLNSYGIS	VIYSDGRRWTYGDSVK	GRAAGTFDF	6.2 µM	2/3
GFTLNSYGIS	VIYSDCRITFYGDSVK	GRAAGTFDN	not detected	0/3
GFTLNSYGIS	VIYSDGRRTFYGDSVK	CRAAGTHDS	not detected	0/3
GFTLNSYGIS	VIYSDGRRRFPGDSVK	GRAEGTFDS	not detected	0/3
GFTLNSYGIS	VIYHDGRRTFYFRSVK	GRAAGTFDS	11 µM	1/3
GKTLNSYGIS	VIYSDGRRTFYGDSVK	YRAASTFDS	15 µM	3/3
GFTLNSYGIS	VIYSDGRRLFYADRVK	GRAAGTFDS	not detected	0/3
GFTHNSYGIS	VIYSYGRRTFYGDSVK	GRAAGTFDK	not detected	0/3
GFPLNSYGIS	VIYLDGRRTFYGDSVK	IRAAGTFDS	not detected	0/3
GFTLNSYGIN	VIYSDGRRTHYGDSQK	GRAAGTFDS	not detected	0/3
GFTLNSYGIS	TIYSDGYRTFEGDSVK	GRAAGTFDS	not detected	0/3
GFTQTSYGIS	VIYSDGRRTFPGDSVK	GRAAGTFDS	39 µM	1/3
GFRLNSYGIS	VIYSDGRRTFYGDSVC	GRAAGPFDS	17 µM	1/3
GNTLYSYGIS	VIYSDGRRTIYGDSVK	GRAAGTFDS	42 µM	1/3
GFTLNSYGFS	VIYSDGRPTFYGDSVK	GRAATTFDS	15 µM	1/3
GFTDNSYGIS	VIYSLGRRTFYQDSVK	GRAAGTFDS	13 µM	2/3
GFTLNSDGIS	VIYSDGRRTFYGDSVT	GRAAGRFDS	62 µM	1/3
GFTLRSYGID	VIPSDGRRTFYGDSVK	GRAAGTFDS	not detected	0/3
GLTLNSYGIS	VIYSDGRRTFYGDSVK	QRAAGTFDS	not detected	0/3
GFTQNSYGIS	LIYSDGRRTFYGDSVK	GRAWGTFDS	7.3 µM	2/3
GFTLNSYGIS	VIYGDGRRIFYGDSIK	GRAAGTFDS	270 nM	1/3
GFTLNWYGIS	VIYHDGRKTFYGDSVK	GRAAGTFDS	15 µM	1/3
GFTLNSYGIS	VIYSDGRRTFYGRSNK	GRAASTFDS	not detected	0/3
GFTLNSYGIW	VIYSDGRFTFYGRSVK	GRAAGTFDS	not detected	0/3
GFTLNSYGIS	VKYSDGRRHFYGDSVK	GRAAGNFDS	not detected	0/3
GFTLESYCFS	VIYSDGRRTFYGDSVK	GRAAGTFDS	5.0 µM	1/3
GFTLNSYGIS	VYYSLGRRTFYGDSVK	GRAAGTMDS	not detected	0/3
GFLLNSYFIS	VIYSDGRRTFYGDSVH	GRAAGTFDS	not detected	0/3
GFTLNSYGIS	VTYSDGRRTFYGDQTK	GRAAGTFDS	14 µM	1/3
GVTLNSYGNS	VIYSDGRRRFYGDSVK	GRAAGTFDS	not detected	0/3
GFTLNSSGIE	VIWSDGRRTFYGDSVK	GRAAGTFDS	not detected	0/3
GFTLNSLGIS	VIYSWGRRTFYGDSVK	GWAAGTFDS	not detected	0/3

Continued, with the values leading:

Kd	detected	CDR-H1	CDR-H2	CDR-H3
630 nM	3/3	MFTLNSYGIS	VIYSDGRRTFYGDSVK	GPADGTFDS
not detected	0/3	GFTYNSYGIS	VIYSDGRRTFYGDSLK	GRAAGTFDS
not detected	0/3	GFTLNSYGIS	VEMSDGRRTFYGSSVK	GRAAGTFDS
19 µM	1/3	GFTLNSYGIS	VQYSDGRRTFYGDSVK	GNAAHTFDS
not detected	0/3	GFTDNSYGYS	VIYSDGRRTFYGDSVK	GLAAGTFDS
38 µM	1/3	GFTLNSYGIS	VIYSDGRCTFYGDSVK	GRAADTFDF
1.5 µM	3/3	GFTLNSYGIS	VIYSDGRRTDYGDSVK	GRAADTFFS
not detected	0/3	GFTLNSYGIS	VIYSDGRRTFWGDSVK	GRAARTCDS
1.7 µM	1/3	GFTLNSYGIS	VIYSRGRRTFYGDSVK	GSAIGTFDS
not detected	0/3	GFTLNSYGIS	VIKSDGRRTFYGDFVK	GRAAGTFDS
2.2 nM	3/3	GFTLDSYGIS	VIYSDGRRTFYGDSVK	GRAAGTFDA
3.8 µM	3/3	AFTLNSYGIS	VIYSDGRRTFYGDSVK	GRAAGTLDS
not detected	0/3	GFTLNSYGIS	VIDSDGRRTFYGDSVK	GRAAKTFDY
not detected	0/3	GFSLNSYGIS	VIYSDGRHTFYGDSVK	GRAAGTGDS
not detected	0/3	GFTLYSYGIS	VIYSDGRRTFYGDCVK	GRAAGTFKS
not detected	0/3	GFTLNSMGIS	VITSDGRRTFYGTSVK	GRAAGTFDS
2.5 µM	1/3	GFALNSYGIS	VIYSDGRRTFAGDSVK	TRAAGTFDS
1.3 µM	1/3	GFSLNHYGIS	VIYSDGRRTFYRDSVK	GRAAGTFDS
not detected	0/3	GFTLNMYYIS	VIYSMGRRTFYGDSVK	GRAAGTFDS
1.1 µM	1/3	GFTLNSYGIS	VIYSPGRRTFYGDSVK	GRNATTFDS
1.6 nM	3/3	GFPLNEYGIS	VIYSDGRRTFYGDSVK	GTAAGTFDS
not detected	0/3	GFTLNSYGIS	QIYSDGRRTFYGDSEK	GNAAGTFDS
1.7 nM	3/3	GFTLNSYGIS	VIYSDGRRTFYNDNVK	GRAAGTFDV
130 nM	3/3	GFTLNSYGIS	VIYSDGRREFYMDSVK	GRAAGTFDS
not detected	0/3	GFTLNSYGIS	VIYSPGRRTFYGDSVK	GRAAYVFDS
160 µM	2/3	GFTLNSYGIS	VIYSDGRYTWYGDSVK	GRHAGTFDS
1.3 µM	1/3	GFTLNSYGIS	VTYSDGRRTFSGDSVK	GRAAGTFWS
3.2 µM	1/3	GFTLNSYGIS	WIYSMGRRTFYGDSVS	GRAAGTFDS
2.3 µM	2/3	GFTLNSYGIS	VLYSDGRRTFYGDSVW	GRAAGTFDS
not detected	0/3	GFTLNSYGIS	VIYSDGRRTFYGWYVK	GRAAGTFDS
not detected	0/3	GFTLNSYGIS	VIYSDGRYTFYGDSVK	GRFMGTFDS
not detected	0/3	SFTLNWYGIS	VIYSDGRRTFRGDSVK	GRAAGTFDS
25 µM	3/3	GFTLNSYGIS	VIYSDGRRTMYGDSVK	GAAAGTFAS
not detected	0/3	GFTLNSYGIS	NIYSDGRRTFYGDSVK	GVAAETFDS
not detected	0/3	GFTLNSYGIS	ECYSDGRRTFYGDSVK	GRAAGTFDT

6 of these entries, quoted again:

CDR-H1	CDR-H2	CDR-H3	Kd	detected
GFTLNSYGIS	VIYSDGRLTFYGDSVQ	GRAAGTFPS	13 µM	2/3
AFTLNSYGIS	VIYSDGRRTFYGDSVK	GRAAGTLDS	3.8 µM	3/3
GFTLNSYGIS	VIYSDGRCTFYGDSVK	GRAADTFDF	38 µM	1/3
GFTLNSYGIS	VEMSDGRRTFYGSSVK	GRAAGTFDS	not detected	0/3
GFTLNSYGIS	VIYSDGRRTFYNDNVK	GRAAGTFDV	1.7 nM	3/3
GFTDNSYGYS	VIYSDGRRTFYGDSVK	GLAAGTFDS	not detected	0/3